Tests used:
[1] = system: WHO gonococcal reference strain Z (WHO Z); details: GCP broth, 10^5 CFU/mL, 24 h, 37°C, 5% CO2, lowest concentration reducing >=90% of bacteria vs non-AMP control, means of three independent experiments
[2] = system: ME180 endocervical epithelial cells; details: 10 μg/mL AMP, 24 hours; three independent experiments

SMILES: CC[C@H](C)[C@H](NC(=O)[C@H](CCCCN)NC(=O)[C@@H]1CCCN1C(=O)[C@@H](NC(=O)[C@H](CC(C)C)NC(=O)[C@H](C)NC(=O)[C@H](Cc1ccccc1)NC(=O)[C@H](Cc1ccccc1)NC(=O)CN)[C@@H](C)CC)C(=O)N[C@H](C(=O)N[C@@H](CO)C(=O)N[C@@H](CO)C(=O)N1CCC[C@H]1C(=O)N[C@@H](CC(C)C)C(=O)N[C@@H](Cc1ccccc1)C(=O)N[C@@H](CCCCN)C(=O)N[C@H](C(=O)N[C@@H](CC(C)C)C(=O)N[C@@H](CC(C)C)C(=O)N[C@@H](CO)C(=O)N[C@@H](C)C(=O)N[C@H](C(=O)NCC(=O)N[C@@H](CO)C(=O)N[C@@H](C)C(=O)N[C@@H](CC(C)C)C(=O)N[C@@H](CO)C(=O)N[C@@H](CO)C(=O)N[C@@H](CO)C(=O)NCC(=O)NCC(=O)N[C@@H](CCC(N)=O)C(=O)N[C@@H](CCC(=O)O)C(=O)O)C(C)C)[C@@H](C)O)[C@@H](C)CC [PB2]
- MIC of AMP [1]: 20 µg/mL
- Cell survival of ME180 cells vs non-treatment control (CCK-8) [2]: No significant difference

— publication PMC11056026, “The Evaluation of Teleost-Derived Antimicrobial Peptides Against Neisseria gonorrhoeae” (Cureus, 2024)
